Our source for the IC50 values is patent publication US20240352073A1, “BICYCLIC PEPTIDE INHIBITORS OF INTERLEUKIN-23 RECEPTOR” (Janssen Biotech, Inc., priority 2021, published 2024).

One assay concerns the target T1, IL-23R (Homo sapiens, UniProt Q5VWK5).
T1 construct: host or cells: HEK293
T1 sequence (Q5VWK5 24-629): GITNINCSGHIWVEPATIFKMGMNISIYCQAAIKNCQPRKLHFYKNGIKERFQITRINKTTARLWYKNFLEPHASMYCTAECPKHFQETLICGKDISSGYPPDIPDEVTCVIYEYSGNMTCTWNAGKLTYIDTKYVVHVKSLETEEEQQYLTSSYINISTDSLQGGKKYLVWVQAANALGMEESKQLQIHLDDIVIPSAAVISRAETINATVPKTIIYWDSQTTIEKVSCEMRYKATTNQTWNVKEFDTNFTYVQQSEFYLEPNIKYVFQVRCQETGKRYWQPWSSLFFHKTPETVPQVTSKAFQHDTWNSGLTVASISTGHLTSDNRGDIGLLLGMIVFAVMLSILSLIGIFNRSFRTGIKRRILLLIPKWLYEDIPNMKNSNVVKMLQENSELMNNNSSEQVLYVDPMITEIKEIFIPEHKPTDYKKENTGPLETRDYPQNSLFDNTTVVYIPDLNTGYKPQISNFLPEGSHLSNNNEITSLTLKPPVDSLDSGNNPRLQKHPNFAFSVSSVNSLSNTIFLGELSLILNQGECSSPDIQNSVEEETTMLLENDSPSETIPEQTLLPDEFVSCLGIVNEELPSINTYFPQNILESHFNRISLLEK
Nature of the assay: IL-23R reporter assay (HEK293, STAT-inducible luciferase). Conditions: IL-12Rβ1 and STAT-inducible luciferase reporter. In kind it is cell-based. The protocol: Example 4. IL-23R Reporter Assay
Compounds were serially diluted in 100% (v/v) DMSO) and plated using an Echo acoustic dispenser (Labcyte) into 1536-well non-treated black assay plates (Corning #9146). 3 μL of HEK293 cells containing IL-23R, IL-12Rβ1 and a firefly luciferase reporter gene driven by a STAT-inducible promoter (Promega) were added to the plates (4000 cells/well), followed by 3 μL of 20 ng/mL IL-23 (equivalent to EC90 concentration). After 5 h at 37° C., 5% CO2, 95% relative humidity, cells were placed at 20° C. and treated with BioGlo reagent (Promega) according to the manufacturer's instructions. Luminescence was measured on a Pherastar FSX (BMG LabTech). Data were normalized to IL-23 treatment (0% inhibition) and 30 μM of control inhibitor (100% inhibition), and IC50 values were determined using a 4-parameter Hill equation. Where multiple measurements have been made the average is shown with the number of replicates indicated in parenthesis following the IC50 values.
(In a reporter assay the amount or activity of a reporter protein is the signal.)

Assay [1] has as its target T2, peripheral blood mononuclear cells (PBMCs) stimulated with IL-23 (Homo sapiens, UniProt Q5VWK5).
T2 sequence (Q5VWK5 24-629): T1 sequence (Q5VWK5 24-629)
Nature of the assay: PBMC pSTAT3 assay. In kind it is cell-based. As to conditions: read-out: PBMC pSTAT3 IC50; PBMCs from healthy donors; IL-23 5 ng/mL, 30 minutes; phosphorylated STAT3 in lysates. The protocol:
Cryopreserved peripheral blood mononuclear cells (PBMCs) from healthy donors were thawed and washed twice in ImmunoCult-XF T cell expansion medium (XF-TCEM) supplemented with CTL anti-aggregate wash. The cells were counted, resuspended at 2×10^5 cells per mL XF-TCEM supplemented with penicillin/streptomycin and 100 ng/mL […] (BioLegend, 579404), and cultured in tissue culture flasks coated with anti-CD3 (eBioscience, 16-0037-85 or BD Pharmingen, 555329) at 37° C. in 5% C02. On day 4 of culture, PBMCs were collected, washed twice in RPMI-1640 supplemented with 0.1% BSA (RPMI-BSA), and incubated in RPMI-BSA in upright tissue culture flasks for 4 hours at 37° C. in 5% C02. Following this ‘starvation,’ a total of 6×10^4 cells in 30 μL RPMI-BSA was transferred into each well of a 384-well plate pre-spotted with peptide or DMSO. The cells were incubated for 30 minutes prior to the addition of IL-23 at a final concentration of 5 ng/mL. The cells were stimulated with cytokine for 30 minutes at 37° C. in 5% C02, transferred onto ice for 10 minutes, and lysed. Cell lysates were stored at −80° C. until phosphorylated STAT3 was measured using the phospho-STAT panel kit (Meso Scale Discovery, K15202D). The results produced with PBMCs are provide in Table 5 below for several from Examples along with data from the IL23R Reporter Assays utilizing HEK293 cells described above. The results are reported for single assays or as the average of replicate assays as indicated by the number in parentheses following the IC50 value.

[2] abbreviates: Table 4, HEK293 cells with IL-23R, stimulated with IL-23.

Usually IC50 stands for the concentration needed to halve the response being measured. Take “5Ava(2)-Abu(1)-N-T-W-Q-C(1)-AEF-2Nal-THP-E(2)-N-3Pya-Sar-K(PEG2PEG2gEC18OH)-CONH2 [Example 250]”: the figures for the IC50 (on IL-23R (setting [2]); in assay [1]) were 3.2 nM and 0.0277 nM, respectively.
In the same order, the values of “CF3CO-Pen(3)-E(2)-T-7MeW-K(NMeAc)-Pen(3)-AEF(2)-2Nal-THP-K(NMeAc)-N-3Pya-Sar-CON(Me)2 [Example 221]” are approximately 9410 nM and 1100 nM.
In the case of “MeCO-Pen(3)-K(NMe)(5)-T-7MeW-K(Ac)-Pen(3)-AEF(5)-2Nal-THP-E-N-3Pya-Sar-CONH2 [Example 265]”, the half-inhibitory concentration (IC50) against IL-23R (setting [2]) came out at 2.2 nM; in assay [1] it was 0.002 nM.
As to “MeCO-Pen(3)-N-3OHPro-7MeW-S5H(4)-Pen(3)-AEF-2Nal-S5H(4)-K(Ac)-N-3Pya-CONH2 [Example 202]”, the IC50 against IL-23R (HEK293 cells containing IL-23R, 20 ng/mL IL-23 (EC90), 5 h) was found to be 7150 nM; in assay [1], 0.0155 nM.
